Measured values published in US10190138B2, “Methods using short chain peracids to replace antibiotics for controlling fermentation process infection” (Ecolab USA Inc., priority 2012, dated 2019).

Conditions: pH 4
Description: The issue of low solubility when using long chain peracids has been addressed by increasing the pH to above 7. […] Further, bleaching efficacy decreases proportionally with every pH unit increase over about 7.

Substance: persulfonated oleic acid
- solubility: greater than 50%
